The target of the series is T1, OCT2 (Homo sapiens, UniProt O15244).
T1 sequence (O15244 1-555): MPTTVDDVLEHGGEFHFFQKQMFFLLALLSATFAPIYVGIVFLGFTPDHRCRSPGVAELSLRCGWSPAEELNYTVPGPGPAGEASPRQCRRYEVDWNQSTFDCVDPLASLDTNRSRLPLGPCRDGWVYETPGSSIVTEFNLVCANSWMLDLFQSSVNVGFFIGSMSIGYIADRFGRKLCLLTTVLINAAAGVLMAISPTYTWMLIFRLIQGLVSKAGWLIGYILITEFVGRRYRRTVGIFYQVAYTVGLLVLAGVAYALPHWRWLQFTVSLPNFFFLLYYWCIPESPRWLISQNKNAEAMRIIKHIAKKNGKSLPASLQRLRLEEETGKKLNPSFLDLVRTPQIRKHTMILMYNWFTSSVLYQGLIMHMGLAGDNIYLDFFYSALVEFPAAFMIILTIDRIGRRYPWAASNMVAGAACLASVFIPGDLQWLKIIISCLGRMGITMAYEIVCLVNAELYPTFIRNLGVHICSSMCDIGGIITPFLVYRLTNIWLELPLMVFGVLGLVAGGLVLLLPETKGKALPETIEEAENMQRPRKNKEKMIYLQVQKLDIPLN
Kind of series: clinical. Conditions: plasma, oral.

By Cmax is commonly meant the highest concentration seen after dosing. Regarding `CN(C)C(=N)N=C(N)N` [metformin], the peak level (Cmax) was 1110 ng/mL.

The record behind these values is article PMC10963303 (Pharmacology Research & Perspectives, 2024).
